{"source": "ChEMBL document CHEMBL4627399", "about": "“Synthesis and Structure-Activity Relationships of 5'-Aryl-14-alkoxypyridomorphinans: Identification of a μ Opioid Receptor Agonist/δ Opioid Receptor Antagonist Ligand with Systemic Antinociceptive Activity and Diminished Opioid Side Effects” (J Med Chem, 2020)", "system": "Mus musculus", "assay": "Antinociceptive activity in CD-1 mouse assessed as total time above 30% maximum possible effect of antinociception at 10 nmol, icv measured up to 5 hrs post dose by warm water tail-flick assay", "data": [{"smiles": "COc1ccc(-c2cnc3c(c2)C[C@@]2(OCCCc4ccccc4)[C@H]4Cc5ccc(O)c6c5[C@@]2(CCN4CC2CC2)[C@H]3O6)cc1", "values": [{"measurement": "Time", "result": "15 to 300", "unit": "min"}]}]}
